The structures appear in SMILES notation.

Amino acid sequences for entries named in this document (tags omitted).
UniProt P04049, whole entry Y340E/Y341E: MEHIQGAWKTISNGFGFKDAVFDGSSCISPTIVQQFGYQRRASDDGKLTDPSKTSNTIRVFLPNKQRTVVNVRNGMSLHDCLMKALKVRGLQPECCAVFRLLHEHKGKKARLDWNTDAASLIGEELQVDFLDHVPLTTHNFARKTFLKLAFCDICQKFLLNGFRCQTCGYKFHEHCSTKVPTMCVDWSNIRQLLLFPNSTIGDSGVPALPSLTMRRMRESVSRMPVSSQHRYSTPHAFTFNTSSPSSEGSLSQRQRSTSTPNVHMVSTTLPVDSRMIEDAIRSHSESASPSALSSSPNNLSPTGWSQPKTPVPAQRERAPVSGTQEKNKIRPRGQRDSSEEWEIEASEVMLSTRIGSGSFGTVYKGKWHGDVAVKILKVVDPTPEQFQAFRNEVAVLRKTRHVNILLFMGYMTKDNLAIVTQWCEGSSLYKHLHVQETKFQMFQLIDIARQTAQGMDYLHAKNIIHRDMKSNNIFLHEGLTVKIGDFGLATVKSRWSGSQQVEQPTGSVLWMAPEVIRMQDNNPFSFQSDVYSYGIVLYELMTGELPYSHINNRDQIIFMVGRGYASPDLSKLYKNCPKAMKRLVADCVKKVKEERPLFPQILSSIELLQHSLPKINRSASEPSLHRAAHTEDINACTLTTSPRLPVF

One assay addresses C-Raf FL (full-length C-Raf protein, Y340E and Y341E activating mutations) (Homo sapiens (Human), UniProt P04049, Y340E/Y341E). The format is biochemical. Conditions: AlphaScreen, 60 min pre-incubation, 1 hour reaction; read-out: c-Raf FL IC-50. (Alpha assays give light when donor and acceptor beads are brought close together.)
For `Cc1ccc(NC(=O)c2ccnc(C(C)(C)C#N)c2)cc1-c1cc(N2CCOC(C)(C)C2)c(=O)n(C)n1` [Example 666, 2-(2-cyanopropan-2-yl)-N-(3-(5-(2,2-dimethylmorpholino)-1-methyl-6-oxo-1,6-dihydropyridazin-3-yl)-4-methylphenyl)isonicotinamide], the IC50 came to 2.4 nM. Take `Cc1ncc(NC(=O)c2ccnc(C(C)(C)F)c2)cc1-c1cc(N2CCOCC2)n2nccc2n1` [Example 790, 2-(2-fluoropropan-2-yl)-N-(6-methyl-5-(7-morpholinopyrazolo[1,5-a]pyrimidin-5-yl)pyridin-3-yl)isonicotinamide]: the IC50 worked out at 1.3 nM. On the same count and under the same terms, with `Cc1ncc(NC(=O)c2cc(C(F)(F)F)ccn2)cc1-c1cc(N2CCOCC2)n2nccc2n1` [Example 810, N-(6-methyl-5-(7-morpholinopyrazolo[1,5-a]pyrimidin-5-yl)pyridin-3-yl)-4-(trifluoromethyl)picolinamide] the figure was 0.3 nM.

As to `Cc1ccc(NC(=O)c2cnnc(C(F)(F)F)c2)cc1-c1cc(N2CCOCC2)c(=O)n(C)n1` [Example 647, N-(4-methyl-3-(1-methyl-5-morpholino-6-oxo-1,6-dihydropyridazin-3-yl)phenyl)-6-(trifluoromethyl)pyridazine-4-carboxamide], the IC50 was 1.5 nM.

Still in this assay, the particulars now being: AlphaScreen, 60 min pre-incubation, reaction 1 hour at room temperature; read-out: c-Raf FL IC-50.
Turning to `Cc1ccc(NC(=O)c2cnnc(C3CC3)c2)cc1-c1cc(OC2CCOCC2)nc(N2CCOCC2)c1` [Example 1154, 6-cyclopropyl-N-(4-methyl-3-(2-morpholino-6-((tetrahydro-2H-pyran-4-yl)oxy)pyridin-4-yl)phenyl)pyridazine-4-carboxamide], the IC50 is 0.12 nM. With `Cc1ncc(NC(=O)c2cc(C(C)(C)F)ccn2)cc1-c1cnc(OC2CC3(COC3)C2)c(N2CCOCC2)c1` [Example 968, N-(6′-(2-oxaspiro[3.3]heptan-6-yloxy)-2-methyl-5′-morpholino-[3,3′-bipyridin]-5-yl)-4-(2-fluoropropan-2-yl)picolinamide], the IC50 is 0.98 nM. Still for that read-out and setting: with `Cc1ccc(NC(=O)c2ccnc(C(C)(C)C#N)c2)cc1-c1cc(OCCO)nc(N2CCOCC2)c1` [Example 1161, 2-(2-cyanopropan-2-yl)-N-(3-(2-(2-hydroxyethoxy)-6-morpholinopyridin-4-yl)-4-methylphenyl)isonicotinamide] the figure was 0.3 nM.

The same assay, now with this note: Table 2; AlphaScreen, 1 hour reaction; read-out: c-Raf FL IC-50.
As for `Cc1ncc(NC(=O)c2cc(CN(C)C)cc(C(F)(F)F)c2)cc1-c1cnc(N(C)C)c(N2CCOCC2)c1` [Example 269, N-(6′-(dimethylamino)-2-methyl-5′-morpholino-[3,3′-bipyridin]-5-yl)-3-((dimethylamino)methyl)-5-(trifluoromethyl)benzamide], the IC50 amounted to 0.9 nM. The same measure, in the same setting: the same measure for `CCn1cc(-c2cc(NC(=O)c3cccc(C(F)(F)F)c3)ccc2C)nc(N2CCOCC2)c1=O` [Example 169, N-(3-(4-ethyl-6-morpholino-5-oxo-4,5-dihydropyrazin-2-yl)-4-methylphenyl)-3-(trifluoromethyl)benzamide]: 0.2 nM; for `Cc1ncc(NC(=O)c2ccnc(C(C)(C)F)c2)cc1-c1cnc(OCCO)c(N2CCOCC2)c1` [Example 299, 2-(2-fluoropropan-2-yl)-N-(6′-(2-hydroxyethoxy)-2-methyl-5′-morpholino-[3,3′-bipyridin]-5-yl)isonicotinamide]: 2.7 nM. Regarding `Cc1ncc(NC(=O)c2cccc(C(C)(F)F)c2)cc1-c1cc(N2CCOCC2)c(=O)n(C)c1` [Example 393, 3-(1,1-difluoroethyl)-N-(1′,2-dimethyl-5′-morpholino-6′-oxo-1′,6′-dihydro-[3,3′-bipyridin]-5-yl)benzamide], the IC50 came to 1.3 nM.

With `Cc1ncc(NC(=O)c2ccnc(C(C)(C)C#N)c2)cc1-c1cnc(OCC(F)F)c(N2CCOCC2)c1` [Example 228, 2-(2-cyanopropan-2-yl)-N-(6′-(2,2-difluoroethoxy)-2-methyl-5′-morpholino-[3,3′-bipyridin]-5-yl)isonicotinamide], the IC50 was determined as 1.1 nM.
